Results on one molecule are retold here after patent publication US9784740B2 (priority 2013, dated 2017).

By UniProt entry, the sequences of proteins in these tests, tags left out.
UniProt P33535, whole entry: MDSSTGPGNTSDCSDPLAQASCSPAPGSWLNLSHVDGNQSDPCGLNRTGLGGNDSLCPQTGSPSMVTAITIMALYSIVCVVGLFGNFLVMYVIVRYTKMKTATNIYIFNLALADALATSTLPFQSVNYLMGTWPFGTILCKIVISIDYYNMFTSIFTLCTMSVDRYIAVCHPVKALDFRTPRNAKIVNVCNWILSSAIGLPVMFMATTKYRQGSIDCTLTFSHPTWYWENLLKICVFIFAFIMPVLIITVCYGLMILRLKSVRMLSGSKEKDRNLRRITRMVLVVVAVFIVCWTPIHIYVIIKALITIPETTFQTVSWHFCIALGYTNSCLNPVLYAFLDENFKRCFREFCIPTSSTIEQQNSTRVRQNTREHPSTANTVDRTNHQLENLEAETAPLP

Usually Ki stands for a dissociation constant, usually derived from enzyme kinetics or from competition with a known ligand. A low value points to higher affinity. Usually EC50 stands for the concentration needed to bring the measured effect to its halfway point.

In assay [1] the target is T1, mu-opioid receptor (C6mu membranes) (Rattus norvegicus, UniProt P33535).
T1 construct: expressed in transfected cells; host or cells: C6 glioma cells (membranes)
Briefly: DAMGO competition binding with [3H]diprenorphine in C6mu membranes. The settings on record: 0.2-0.3 nM [3H]diprenorphine, 100 mM NaCl, 10 uM GTPγS, vehicle.

For assay [2], the target named is T1, mu-opioid receptor (C6mu membranes). Nature of the assay: [35S]GTPγS binding in C6mu cell membranes. The note with it: DAMGO EC50 to stimulate [35S]GTPγS binding, alone, vehicle, mean (95% CI). The class given is biochemical. For orientation: GTPγS resists hydrolysis and so accumulates on activated G proteins.

Values joined by “and” are separate entries in the source; they are usually repeats but may differ in a detail not shown here. Equal entries are not always repeated.

`C[C@@H](NC(=O)[C@@H](N)Cc1ccc(O)cc1)C(=O)NCC(=O)N(C)[C@@H](Cc1ccccc1)C(=O)NCCO` [DAMGO, reference compound]: the affinity in assay [1] corresponds to a Ki of 0.34 µM. Besides, the EC50 in assay [2] was 0.222 µM and 0.224 µM.
